The target in this experiment is Aminopeptidase N (Homo sapiens, UniProt P15144).

The chains behind the UniProt entries cited, without tags or fusion partners. Where a name states a change or a piece, a line headed by the entry shows the natural chain unless it says otherwise.
UniProt P15144: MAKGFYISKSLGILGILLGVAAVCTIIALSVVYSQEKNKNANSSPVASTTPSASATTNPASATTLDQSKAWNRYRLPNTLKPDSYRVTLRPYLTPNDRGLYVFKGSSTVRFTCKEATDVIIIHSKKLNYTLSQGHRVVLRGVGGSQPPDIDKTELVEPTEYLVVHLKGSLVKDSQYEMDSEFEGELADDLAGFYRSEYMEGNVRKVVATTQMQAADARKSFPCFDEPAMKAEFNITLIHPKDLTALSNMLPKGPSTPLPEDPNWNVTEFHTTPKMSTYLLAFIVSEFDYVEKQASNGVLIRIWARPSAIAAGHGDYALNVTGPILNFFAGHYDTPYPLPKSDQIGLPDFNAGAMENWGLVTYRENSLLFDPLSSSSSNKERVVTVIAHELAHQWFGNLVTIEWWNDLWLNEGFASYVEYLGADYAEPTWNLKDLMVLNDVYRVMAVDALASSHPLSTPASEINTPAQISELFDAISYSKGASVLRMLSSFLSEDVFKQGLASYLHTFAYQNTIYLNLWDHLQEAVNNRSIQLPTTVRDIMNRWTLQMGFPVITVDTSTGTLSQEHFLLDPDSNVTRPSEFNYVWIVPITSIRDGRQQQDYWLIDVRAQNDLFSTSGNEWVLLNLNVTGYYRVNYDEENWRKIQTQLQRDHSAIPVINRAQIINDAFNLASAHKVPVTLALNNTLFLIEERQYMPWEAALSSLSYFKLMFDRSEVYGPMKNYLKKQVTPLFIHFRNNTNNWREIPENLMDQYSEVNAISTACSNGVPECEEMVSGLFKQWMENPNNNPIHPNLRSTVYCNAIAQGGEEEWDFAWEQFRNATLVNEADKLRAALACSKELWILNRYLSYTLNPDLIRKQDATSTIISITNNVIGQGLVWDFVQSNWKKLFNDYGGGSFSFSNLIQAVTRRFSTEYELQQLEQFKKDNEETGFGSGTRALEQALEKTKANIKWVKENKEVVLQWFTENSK

`COc1cc(/C=C/C(=O)CC(=O)/C=C/c2ccc(O)c(OC)c2)ccc1O` [CURCUMIN] gave an IC50 of 15.5 µM. That is a double-digit micromolar value.

For the origin of these results see ChEMBL document CHEMBL4190377, “Design of Aminopeptidase N Inhibitors as Anti-cancer Agents” (J Med Chem, 2018).
